Experimental findings from patent publication US6933289B2, “Inhibition of irritating side effects associated with use of a topical ophthalmic medication” (Allergan, Inc., priority 2003, dated 2005) are described below.

A short description of the data set: Phase-solubility analysis: association constant between bimatoprost and cyclodextrin or cyclodextrin derivative. As to conditions: 1:1 complex with bimatoprost, stirred one week at room temperature. The data set is classed as physicochemical. From the text: The association constant between an active drug and a cyclodextrin or cyclodextrin derivative is used to quantify the equilibrium association reaction depicted in equation 1, D+CD=D . . . CD (1) where D represents the active drug, CD represents the cyclodextrin or cyclodextrin derivative, and D . . . CD represents the associated complex of the two. The association constant, K, defines the relationship between the molar concentration of the active drug, [D], the molar concentration of the cyclodextrin or cyclodextrin derivative, [CD], and the molar concentration of the complex, [D . . . CD], according to equation 2. [formula]
The association constant between the bimatoprost and four cyclodextrin or cyclodextrin derivatives was determined by running phase-solubility analysis. […] The concentration of the solubilized drug in each filtrate sample was determined and drug solubility (y-axis) was plotted against the concentration of the cyclodextrin or cyclodextrin derivative (x-axis). A linear fit of the data was made using least-squares regression to a linear to equation (3). y=(slope)x+b (4) The association constant for a 1:1 complex (K) was determined by equation (5) K=slope/S0(1−slope) (5) where S0is the maximum solubility of the active drug in the formulation in the absence of the cyclodextrin or cyclodextrin derivative. […]

For 2-Hydroxypropyl γ-cyclodextrin, the “Association Constant (molar association constant for bimatoprost)” value is reported as “≈201 M^−1”.
